We go through two molecules from PubChem BioAssay AID590 (National Center for Advancing Translational Sciences (NCATS), 2007).

This is a selection; strong and weak results do not stand in their true shares. Results filed as inconclusive are left out. Calls of active or inactive are those of the source. No stated cut-off is given here; in the data, active means max dye-equivalent concentration above about 10 nM; inconclusive means mostly about 1.1 nM to 9.6 nM; inactive means weaker than that.

The nature of the experiment: qHTS Assay for Spectroscopic Profiling in A350 Spectral Region. To be noted: Compound autofluorescence, 340/450 nm, Alexa 350 dye-equivalents; stronger effect = higher value. From the text: NIH Molecular Libraries Screening Centers Network [MLSCN]
NIH Chemical Genomics Center [NCGC]
Occasionally, the artifactual effect may originate from the compounds own spectral or other biophysical properties which generally tend to track its assay concentration. Pre-screening/profiling the library with respect to the compounds spectral properties should help one exclude false positives early on. While the most informative fluorescent profiling data set is obtained by performing a full excitation and emission scan of each well by using a monochromator-based plate reader, such an approach is practical only on a very limited scale as scanning each well requires long time. An alternative approach, applied here, is to perform plate reader scans using selected excitation and emission wavelength pairs to generate a multidimensional relational database that correlates compound concentration and the respective relative fluorescence intensity at a given wavelength set. A standard curve of Alexa 350 (A 350) present on each plate as six-point concentration series, was used to compute a normalized fluorescence response, termed dye-equivalent concentration, for each compound at each concentration.
NCGC Assay Protocol Summary:
100 mM Tris buffer, pH 8.0 […]
On the technique in general: qHTS replaces the single test concentration by a dilution series.
On to `COP1(=S)c2c(C)nn(CCC#N)c2N=C(c2ccc(F)cc2)N1C` (configuration not stated), for which the max dye-equivalent concentration was active: 140 nM.

On to `CN1CCC[C@H](OC(=O)C(c2ccccc2)c2ccccc2)C1`, for which the max dye-equivalent concentration is active: 10 nM.
